We go through 3 molecules from patent US20070009484A1, “Compositions and methods involving MDA-7 for the treatment of cancer” (Board of Regents, The University of Texas System, priority 2005, published 2007).

Common to all, as to assay type: cell-based, human
One series concerns MCF-7 cells. Kind of series: Cell death by trypan blue staining. The following applies: HER2 negative; 3 days; 1 μg/ml Herceptin, 2000 vp/cell. On the procedure: Apoptosis was measured by TUNEL and Annexin V assays. […] Cell viability was determined by trypan-blue exclusion assay.
For another series, the system named is COX-2. Kind of series: Western blotting and densitometry.
In the next series the test system is β-catenin. Kind of series: Western blotting and densitometry. A general note: A western blot detects proteins with antibodies after separation by electrophoresis.
A further series concerns p-Akt. Kind of series: Western blotting and densitometry.
Another series relates to Akt. Kind of series: Western blotting and densitometry.
A further series deals with MDA-MB231 cells. Kind of series: Cell viability by trypan blue exclusion assay. As to conditions: 30 ng/ml, 96 h. On the procedure: (§1) MDA-MB231 and MDA-MB453 breast cancer lines were obtained from the America Type Culture Collection (ATCC, Manassas, Va.) and were maintained in DMEM (Hyclone, Inc., Logan, Utah) supplemented with 10% fetal bovine serum (Life Technologies, Inc.), 100 units/ml penicillin, 100 μg/ml streptomycin, 2 mM L-glutamine, and HEPES buffer (Life Technologies, Inc., Grand Island, N.Y.). The cells were screened routinely to verify lack of mycoplasma contamination and were used in the log phase of growth. Monoclonal anti-IL-24 antibody was prepared as described previously (Caudell et al., 2002). Rabbit phospho-Stat3 (Tyr705) antibody was purchased from Cell Signaling Technology Inc. (Beverly, Mass.), β-Actin monoclonal antibody and terminal deoxynucleotidyl transferase-mediated dUTP-biotin nick-end labeling (TUNEL) kits were purchased from Oncogene Research Products (San Diego, Calif.), and all other primary and secondary antibodies were purchased from Santa Cruz Biotechnology (Santa Cruz, Calif.). Cell viability was analyzed by trypan blue exclusion assay. Cells were trypsinized and an aliquot suspended 1:1 volume with 0.4% trypan blue. Total cell numbers and cell viability counts were assessed using a hemocytometer by light microscopy (Chada et al., 2005).
(§2) Full-length mda-7 cDNA was cloned into pCEP4 FLAG vector (Invitrogen, San Diego, Calif.) containing the CMV promoter. […]

The next series deals with MDA-MB453 cells. Kind of series: Cell viability by trypan blue exclusion assay. The following applies: 30 ng/ml, 96 h. On the procedure:
as §1, §2

Consider “Herceptin: humanized antibody developed as an antagonist for the human epidermal growth factor receptor-2 (HER-2)”, for which the cell death result with MCF-7 cells was “resistant to Herceptin”.
As for `Cc1ccc(-c2cc(C(F)(F)F)nn2-c2ccc(S(N)(=O)=O)cc2)cc1` [Celecoxib, 4-[5-(4-methylphenyl)-3-(trifluoromethyl)-1H-pyrazol-1-yl]benzenesulfonamide], the “relative densitometry number for COX-2” value was 0.53 in the series with COX-2 (HER2+ (MCF7/Her18) cells) and 0.74 in the series with COX-2 (HER2- (MDA-MB-436) cells). Also, the “relative densitometry number for β-catenin” value in the series on β-catenin (HER2+ (MCF7/Her18) cells) was found to be 0.78; with β-catenin (HER2- (MDA-MB-436) cells), 0.82. In addition, the “relative densitometry number for pAkt” value in the series with p-Akt (HER2+ (MCF7/Her18) cells) is 0.61; with p-Akt (HER2- (MDA-MB-436) cells), 0.67. The “relative densitometry number for Akt” value in the series with Akt (HER2+ (MCF7/Her18) cells) stood at 1.01; with Akt (HER2- (MDA-MB-436) cells) it was 0.72.

B1: IL-20: IL-10 family cytokine (protein, UniProt Q9NYY1 25-176, looked up)
Interleukin-20: LKTLNLGSCVIATNLQEIRNGFSEIRGSVQAKDGNIDIRILRRTESLQDTKPANRCCLLRHLLRLYLDRVFKNYQTPDHYTLRKISSLANSFLTIKKDLRLCHAHMTCHCGEEAMKKYSQILSHFEKLEPQAAVVKALGELDILLQWMEETE
Turning to B1, the “cell death (cytotoxicity) by cytokine protein” value with MDA-MB231 cells and in the series on MDA-MB453 cells was “none of these induced cell death above background levels” in each case.
